Assay results taken from PubChem BioAssay AID540295 (The Scripps Research Institute Molecular Screening Center, 2011).
Only a part is listed here, and it is no random draw. Active and inactive are the calls of the source.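 How the source made its calls: active means inhibition above its plate's cutoff, the mean of tested wells on that plate plus 3 SD (cut at about 29% in these data); inactive means the rest.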

Chains of the proteins cited; added tags and fusions are not shown.
UniProt P32245, whole entry: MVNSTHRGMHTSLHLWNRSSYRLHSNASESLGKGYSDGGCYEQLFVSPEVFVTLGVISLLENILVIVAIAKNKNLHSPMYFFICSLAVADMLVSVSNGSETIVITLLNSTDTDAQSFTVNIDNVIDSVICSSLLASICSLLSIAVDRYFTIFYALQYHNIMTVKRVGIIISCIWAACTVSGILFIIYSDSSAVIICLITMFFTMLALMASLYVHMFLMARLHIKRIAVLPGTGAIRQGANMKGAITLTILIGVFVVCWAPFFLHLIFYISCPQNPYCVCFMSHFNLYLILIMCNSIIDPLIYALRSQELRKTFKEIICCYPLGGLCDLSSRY

These compounds were tested against Melanocortin receptor 4 (Homo sapiens) (UniProt P32245) (assay: blockers of MC4R Gs-cAMP response – cell-based, TR-FRET, antagonist arm of biased-ligand search, primary screen (AID 540295;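 further: 0% = Melanotan II alone and 100% = Melanotan II plus saturating MCL0020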)). Conditions: MC4R-expressing cells, MTII-stimulated cAMP, LANCE TR-FRET; at 6.5 µM; stronger effect = higher value.

Row | SMILES | inhibition
1 | CCC(=O)N(c1ccccc1)C1(COC)CCN(CCn2nnn(CC)c2=O)CC1 | inactive: 4.86%
2 | CCC(=O)N(c1ccccc1)C1(COC)CCN(CCc2cccs2)CC1 | inactive: 4.73%
